Measurements taken from paper PMC5867211 (Archives of toxicology, 2017).

Assay: in vitro
Details: human

## CC(CCc1ccccc1)NCC(O)c1ccc(O)c(C(N)=O)c1 (stereo not shown) [Labetalol]
  IC50: 200 ± 10 µM
